The record followed here is patent US20240342138A1, “MICROTUBULE TARGETING AGENTS” (BPGbio, Inc., priority 2023, published 2024).

The assay deals with colchicine binding site of tubulin. The assay can be described thus: EBI labeling assay in MIA PaCa2 cells (Western blot). The class given is cell-based. To be noted: 2 hours compound, then 2 hours 100 μM EBI, FIG. 2, FIG. 3. (Immunoblotting shows a protein as a band on a membrane.)

As to `COc1cc2c(c(OC)c1OC)-c1ccc(OC)c(=O)cc1[C@@H](NC(C)=O)CC2` [colchicine], the “Formation of EBI:β-tubulin adducts” value is “inhibited formation of the EBI:β-tubulin adducts”.
